We go through 3 molecules from PubChem BioAssay (NCATS).

Molecules are shown by their SMILES. Several values for one entry are separate records, joined by “and”; a condition that tells them apart may be missing. Equal values may be shown once. Only a part is listed here, and it is no random draw. Records with an inconclusive call do not appear. Activity calls are given as the source filed them. Unless noted, calls come from the whole dose curve; as a rule, active = well fitted curve in the direction sought with a large enough effect; inconclusive = small, poorly fitted or top-dose-only effect, or another doubt; inactive = no such curve, though single readings can be large; an effect the other way counts as inactive or inconclusive.

One assay relates to CRL-7250. Briefly: Cytotoxic Profiling of Annotated Libraries Using Quantitative High-Throughput Screening (AID 1296008). For max response: % is set by controls: 0 for no effect and ±100 for the full control effect. Note: nearly all actives have a fitted effect of over 60% in size. The settings on record: Five cell lines viability, CellTiter-Glo ATP luminescence, 48-72 h; hits give low values. The gist of the method: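 Cytotoxicity was measured as CellTiter-Glo ATP luminescence, read after 10 min at room temperature. Compound treatment of the cells lasted 48 or 72 hr at 37 degrees Celsius in a qHTS format.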
Background: Cellular ATP, detected with luciferase, serves as a proxy for viable cell number.

Assay [1] in a line: Quantitative High-Throughput drug screen in 47 multiple myeloma cell lines against the NCATS MIPE library collection: KMM1_JCRB cell viability assay (AID 1918960).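 Note: 100% = DMSO-treated cells and 0% = medium-only wells; nearly all actives have a fitted effect of over 30% in size.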 The settings on record: KMM1 myeloma viability, CellTiter-Glo ATP luminescence, 48 h; at 45.8 µM (top of the series). The gist of the method: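 Each line was plated at 500 cells/well and treated 48 h with library drugs. Viability came from CellTiter-Glo luminescence relative to DMSO and cell-free medium controls.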

Assay [2] in a line: Quantitative High-Throughput drug screen in 47 multiple myeloma cell lines against the NCATS MIPE library collection: Karpas417_ECACC cell viability assay (AID 1918961). The settings on record: Karpas417 myeloma viability, CellTiter-Glo ATP luminescence, 48 h; at 45.8 µM (top of the series). The method in brief: (§1)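 Inhibition of cell viability is measured here. Each line was plated at 500 cells per well, treated with MIPE 4.0 drugs, kept 48 hours at 37C, then assayed for ATP content by CellTiter-Glo luminescence.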

A short description of assay [3]: Quantitative High-Throughput drug screen in 47 multiple myeloma cell lines against the NCATS MIPE library collection: JIM3_ECACC cell viability assay (AID 1918963; note: potency is the fitted concentration of half-maximal effect; nearly all actives have a fitted effect of over 35% in size). Conditions: JIM3 myeloma viability, CellTiter-Glo ATP, 48 h. The gist of the method:
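Approved and investigational drugs from MIPE 4.0 were added by pin tool to 500 cells per well. After 48 hours at 37C, ATP-based CellTiter-Glo luminescence indicated remaining viability.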

A short description of assay [4]: Quantitative High-Throughput drug screen in 47 multiple myeloma cell lines against the NCATS MIPE library collection: JIM1_ECACC cell viability assay (AID 1918964). Conditions: JIM1 myeloma viability, CellTiter-Glo ATP luminescence, 48 h; at 45.8 µM (top of the series). The method in brief:
(§2)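 Primary qHTS used for cherry-picking: cells at 500/well, library compounds for 48 h (37C, 5% CO2), luminescent ATP assay.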

Assay [5] is described as follows: Quantitative High-Throughput drug screen in 47 multiple myeloma cell lines against the NCATS MIPE library collection: INA6_PLB cell viability assay (AID 1918965; note: potency is the fitted concentration of half-maximal effect; nearly all actives have a fitted effect of over 55% in size). Conditions: INA6 myeloma viability, CellTiter-Glo ATP luminescence, 48 h. The method in brief:
as §1

Assay [6] is described as follows: Quantitative High-Throughput drug screen in 47 multiple myeloma cell lines against the NCATS MIPE library collection: JJN3_DSMZ cell viability assay (AID 1918966; note: potency is the fitted concentration of half-maximal effect; nearly all actives have a fitted effect of over 50% in size). The settings on record: JJN3 myeloma cells viability, CellTiter-Glo ATP, 48 h. The gist of the method:
as §2

Assay [7] is described as follows: Quantitative High-Throughput drug screen in 47 multiple myeloma cell lines against the NCATS MIPE library collection: H1112_PLB cell viability assay (AID 1918967; note: potency is the fitted concentration of half-maximal effect; nearly all actives have a fitted effect of over 30% in size). The settings on record: H1112 myeloma cells viability, ATP luminescence, 48 h. The gist of the method: as §2
The nature of assay [8]: Quantitative High-Throughput drug screen in 47 multiple myeloma cell lines against the NCATS MIPE library collection: KMS27_JCRB cell viability assay (AID 1918970). Note: nearly all actives have a fitted effect of over 30% in size. Conditions: KMS27 myeloma cells, CellTiter-Glo ATP viability, 48 h; at 45.8 µM (top of the series). The gist of the method:
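Myeloma cells (500 per well) were exposed to MIPE 4.0 compounds for 48 h at 37 °C, 5% CO2; viability was read as ATP luminescence with CellTiter-Glo, normalized to DMSO-only (100%) and media-only (0%) wells.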

Assay [9] in a line: Quantitative High-Throughput drug screen in 47 multiple myeloma cell lines against the NCATS MIPE library collection: KMS12PE_JCRB cell viability assay (AID 1918972). Note: nearly all actives have a fitted effect of over 30% in size. The settings on record: KMS12PE myeloma viability, CellTiter-Glo ATP, 48 h; at 45.8 µM (top of the series). The gist of the method:
as §1

Assay [10] can be described thus: Quantitative High-Throughput drug screen in 47 multiple myeloma cell lines against the NCATS MIPE library collection: KMS26_JCRB cell viability assay (AID 1918975). Note: potency is the fitted concentration of half-maximal effect; nearly all actives have a fitted effect of over 45% in size. Conditions: KMS26 myeloma cells viability, CellTiter-Glo ATP, 48 h. The gist of the method:
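Myeloma cells (500 per well) were exposed to MIPE 4.0 compounds by pin transfer and incubated 48 hours at 37C, 5% CO2. Viability was read as ATP by CellTiter-Glo luminescence, normalised to DMSO (100%) and media-only (0%) wells.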

Assay [11] is described as follows: Quantitative High-Throughput drug screen in 47 multiple myeloma cell lines against the NCATS MIPE library collection: OCIMY1_PLB cell viability assay (AID 1918979). Note: nearly all actives have a fitted effect of over 35% in size. The settings on record: OCI-MY1 myeloma viability, CellTiter-Glo ATP, 48 h; at 45.8 µM (top of the series). The method in brief: (§3)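 ATP-based luminescence (CellTiter-Glo, 5 min RT incubation) quantified surviving cells following two days' treatment with MIPE 4.0 agents at 37 °C, 5% CO2.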

Assay [12] in a line: Quantitative High-Throughput drug screen in 47 multiple myeloma cell lines against the NCATS MIPE library collection: MM1R_ATCC cell viability assay (AID 1918981). Note: potency is the fitted concentration of half-maximal effect; nearly all actives have a fitted effect of over 35% in size. Conditions: MM1R multiple myeloma cells, CellTiter-Glo viability, 48 h. The method in brief:
as §3

Assay [13] is described as follows: Quantitative High-Throughput drug screen in 47 multiple myeloma cell lines against the NCATS MIPE library collection: LP1_DSMZ cell viability assay (AID 1918982). Note: nearly all actives have a fitted effect of over 35% in size. The settings on record: LP1 myeloma viability, CellTiter-Glo ATP luminescence, 48 h; at 45.8 µM (top of the series). The gist of the method: as §3
Assay [14] can be described thus: Quantitative High-Throughput drug screen in 47 multiple myeloma cell lines against the NCATS MIPE library collection: L363_DSMZ cell viability assay (AID 1918984). Note: nearly all actives have a fitted effect of over 40% in size. Conditions: L363 myeloma viability, CellTiter-Glo ATP luminescence, 48 h; at 45.8 µM (top of the series). The gist of the method: as §3
Assay [15] can be described thus: Quantitative High-Throughput drug screen in 47 multiple myeloma cell lines against the NCATS MIPE library collection: OCIMY7_PLB cell viability assay (AID 1918987). Note: potency is the fitted concentration of half-maximal effect; nearly all actives have a fitted effect of over 65% in size. The settings on record: OCI-MY7 myeloma viability, CellTiter-Glo ATP, 48 h. The gist of the method:
as §3

Assay [16] in a line: Quantitative High-Throughput drug screen in 47 multiple myeloma cell lines against the NCATS MIPE library collection: OCIMY5_PLB cell viability assay (AID 1918988). Note: potency is the fitted concentration of half-maximal effect; nearly all actives have a fitted effect of over 65% in size. Conditions: OCI-MY5 myeloma viability, ATP luminescence, 48 h. The gist of the method:
as §3

Assay [17] is described as follows: Quantitative High-Throughput drug screen in 47 multiple myeloma cell lines against the NCATS MIPE library collection: VP6_DJ cell viability assay (AID 1919867). Note: potency is the fitted concentration of half-maximal effect; nearly all actives have a fitted effect of over 40% in size. Conditions: ATP luminescence, 48 h. The method in brief: as §3
Assay [18] is described as follows: Quantitative High-Throughput drug screen in 47 multiple myeloma cell lines against the NCATS MIPE library collection: PE2_PLB cell viability assay (AID 1919869). The settings on record: PE2_PLB myeloma cells viability, ATP luminescence, 48 h. The method in brief: as §3
Assay [19] is described as follows: qHTS drug screen for cell cycle checkpoint inhibitors in PARPi-resistant BRCA-mutant ovarian cancer cell lines. (AID 1963452; calls by dose curve). Conditions: PEO1/OlaR viability, CellTiter-Glo luminescence, 96 h; hits give low values. The gist of the method:
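PEO1, PEO4 and PEO1/OlaR ovarian cancer cells, 600 per well, exposed 96 h at 37C to a dilution series. Viability read by CellTiter-Glo luminescence, normalized to DMSO and empty wells; activity summarized as Z-AUC.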

Turning to `CCC(=O)N(c1ccccc1)C1(COC)CCN(CCn2nnn(CC)c2=O)CC1`, the molecule was classed as inactive in the assay on CRL-7250.

In the case of `CCC(=O)N(c1ccccc1)C1(COC)CCN(CCc2cccs2)CC1`, the max response in the assay with CRL-7250 is inactive: -2.77%.

In the case of `CN(CCCl)CCCl`, the viability (% of DMSO) in [1] was inactive: 97.6%; in [2], inactive: 104%; in assay [4] it was inactive: 105%; in assay [8] it was inactive: 90.2%. Further, the Potency is active: 20.9 µM in assay [3]; active: 11.8 µM in assay [5]; active: 26.4 µM in [6]; active: 20.9 µM in assay [7]; active: 20.9 µM in [10]; active: 13.2 µM in assay [12]. Further, the Potency in assay [15] is active: 5.9 µM; in assay [16], active: 23.5 µM; in assay [17], active: 9.35 µM; in [18], active: 11.8 µM. The results for the viability in assay [9] and in assay [11] were inactive: 109% and inactive: 118%, respectively. Besides, the viability (% of control) in assay [13] is inactive: 122%; in assay [14] it was inactive: 102%. The Z-AUC in [19] was inactive: 0.0825. For the same molecule, in the assay on CRL-7250, the max response is inactive: -2.77% and inactive: 0.904%.
